Data from patent US9938222B2 (BRISTOL-MYERS SQUIBB COMPANY, priority 2014, dated 2018).

Protein sequences, listed by entry. Tags and fused reporters are not part of them.
UniProt Q5NUL3, whole entry: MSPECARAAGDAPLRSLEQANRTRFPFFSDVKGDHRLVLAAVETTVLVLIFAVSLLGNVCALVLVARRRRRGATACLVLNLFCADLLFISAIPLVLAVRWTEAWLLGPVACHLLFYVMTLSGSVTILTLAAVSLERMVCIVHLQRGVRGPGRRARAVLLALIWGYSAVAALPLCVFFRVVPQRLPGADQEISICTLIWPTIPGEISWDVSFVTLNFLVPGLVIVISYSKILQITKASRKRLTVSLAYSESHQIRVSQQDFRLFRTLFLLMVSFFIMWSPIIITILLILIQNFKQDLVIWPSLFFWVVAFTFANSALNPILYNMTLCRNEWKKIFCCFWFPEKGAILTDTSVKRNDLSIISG

Target: human GPR120 (Homo sapiens (Human), UniProt Q5NUL3)
Assay: GPR120 pERK AlphaScreen SureFire Assay (human GPR120 pERK assay)
Details: CHO cells stably transfected with short form of human GPR120
Text: GPR120 activity was monitored by measuring phosphorylation of ERK (pERK), since G protein receptors are known to activate the ERK signaling cascade either directly and/or through recruitment of arrestin that serves as a scaffold for downstream signaling events.
GPR120 pERK AlphaScreen SureFire Assay
The human and mouse GPR120-mediated intracellular phosphorylated ERK assays were established using CHOA12 cells stably transfected with the short form of human or mouse GPR120 receptor. Cells were cultured in growth medium consisting of F-12 media (Invitrogen Cat. #11765) with 5% Charcoal/Dextran FBS (Invitrogen Cat. #12676-029), 500 μg/mL GENETICIN® (Life Technologies Cat. #10131-027) and 250 μg/mL Zeocin (Invitrogen Cat. #R250-01). Cells were cryo-preserved at a concentration of 2×10^7 cells/mL, in 90% Charcoal/Dextran FBS and 10% DMSO, and frozen in liquid nitrogen at a low passage number.
For the pERK assay, 2×10^7 cells/mL cryopreserved human and mouse cells were thawed rapidly in a 37° C. water bath and added to a T-225 flask containing 50 mL growth medium. The flasks were placed in a tissue culture incubator overnight (37° C., 5% CO2). The next day, cells were harvested with trypsin (Gibco Cat. #25300-054), resuspended in serum-containing growth medium and counted using a Cellometer and volume adjusted to a concentration of 0.6×10^6 cells/mL. Cells were plated into 384-well clear bottom tissue culture plates (BD Cat. #353962) at 50 μL/well, for a density of 30,000 cells/well using a MULTIDROP® and incubated for 16-18 hours (overnight) at 37° C. with 5% CO2. The next day, cells were serum starved in 30 μL of F-12 media without any serum or antibiotics for 2 hours at 37° C.
Test compounds were 3-fold, 11-point serially diluted in DMSO in a REMP assay plate (Matrix Cat. #4307) by Tecan and 5 μL was transferred into an ECHO source plate (Labcyte Cat. #LC-0200). Cells were then stimulated with 50 nL of compound dilutions using ECHO liquid handler for 7 min at 37° C. Compounds ranged from final assay concentrations of 33.33 μM to 0.56 nM.
The media was then dumped and cells lysed with 20 μL of 1× Lysis buffer from the AlphaScreen SureFire Phospho-ERK 1/2 Kit (Perkin Elmer Cat. #6760617M). The lysis buffer was diluted 5-fold with water before use. The plate was agitated on a shaker for 10 min after which 2 μL was transferred into a 384-well white proxiplate (Perkin Elmer Cat. #6008289). The SureFire assay reagent mix was prepared by mixing 60 parts Reaction Buffer, 10 parts Activation Buffer, 1 part Donor Beads, 1 part Acceptor Beads (Perkin Elmer Cat. #TGRES10K). 3.5 μL/well of this reagent mix was manually added to the proxiplate with a multichannel pipettor. Plates were spun down at 1000 rpm for 2 min, followed by light-protected incubation at room temperature for 2 hours. The plates were read on the Alpha-technology compatible Envision multilabel plate reader using AlphaScreen protocol according to manufacturer's specifications. The agonist effect of compounds was expressed as 100×(average sample-average blank)/(average total-average blank) where sample is the luminescence activity in the presence of test compound, blank is equal to the luminescence activity in the presence of DMSO control and the total is signal induced by 50 μM linolenic acid as reference compound. […] After correcting for background, EC50 values were determined. […]

In order of falling EC50:
1. COc1ccc(F)c(-c2ccc(OC[C@@H]3C[C@H]3C(=O)O)cc2)c1 (relative stereo)  2280 nM
2. CCOc1ccc(F)c(-c2ccc(CC[C@@H]3C[C@H]3C(=O)O)cc2)c1 (relative stereo)  1250 nM
3. O=C(O)[C@@H]1C[C@H]1COc1ccc(-c2cc(Oc3ccccc3)ccc2F)cc1 (relative stereo)  450 nM
4. O=C(O)C1CC1COc1ccc(-c2cc(Oc3ccccc3)ccc2F)cc1 (single isomer, unassigned) [57]  120 nM
5. O=C(O)C1CC1COc1ccc(-c2cc(Oc3ccccc3)ccc2F)cc1 (single isomer, unassigned) [58]  110 nM
